PglD DTNB = inhibitors of Campylobacter jejuni PglD acetyltransferase; purified PglD enzyme, DTNB colorimetric CoA detection; inhibition, % at 12.5 µM; 360,000 tested, 0.098% active; AID 602405; in the data active = inhibition above about 16%, passing the limit was not always enough
PDI inh = PDI (human) enzyme inhibition; P07237; PDI insulin aggregation turbidity, A650, 90 min; inhibition, % at 10 µM; AID 588391; 350,000 tested, 0.052% active;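 active = mean inhibition across replicates of 30% or more, whatever share of single replicates reach that level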
UUG fidelity = modulators of yeast start codon fidelity, primary screen, whole organism, S. cerevisiae, single point, plate reader. S. cerevisiae UUG-firefly luciferase reporter, luminescence/redox ratio. activity score, % at 18.7 µM. hit rate 0.13% among 350,000;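 active = replicate mean at a twofold rise or more, about +100% in these data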;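 also: firefly luciferase made from a UUG start codon reports start codon fidelity; reporter light over untreated wells divided by growth signal over untreated wells; some hits fall short of that in this replicate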
ERp5 block = ERp5 (human) disulfide isomerase inhibition; 350,000 tested, 0.05% active; ERp5 insulin aggregation, absorbance 650 nm, 90 min; inhibition, % at 9.99 µM; AID 651711;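 active = mean replicate inhibition above about 25%, with every replicate also reaching it, limit read from the data, passing the limit was not always enough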
FGF22 binding-1 = shifts melting point of recombinant human FGF22 | Q9HCT0 | recombinant FGF22 thermal shift, SYPRO orange fluorescence; percent of sucrose octasulfate shift, DMSO zero | activity (Tm shift, normalised), % at 9.99 µM | 340,000 tested, 1.5% active | AID 651658;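 active = mean Tm shift, scaled 0 neutral to 100 positive control, at about 1.3% or above, every replicate too, limit read from the data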
ARNT-TACC3 inh = disruptors of human ARNT/TACC3 interaction | Q9Y6A5 | AlphaScreen His-ARNT PAS-B/GST-TACC3 binding, luminescence; TACC3 fragment carries E629A point mutation | inhibition, % at 9.99 µM | 390,000 tested, 0.66% active;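 active = mean inhibition of replicates at least 50% and at least half of replicates each reaching 50%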;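 also: 0% = complete ARNT plus TACC3 wells and 100% = ARNT alone without TACC3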
FGF22 binding-2 = binds human FGF22 shifting its melting temperature; shares compounds with FGF22 binding-1; recombinant FGF22 thermal shift, SYPRO orange fluorescence; thermal shift activity, °C (ΔTm) at 38 µM; 1,000 tested, 2% active;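 active = fitted rise in melting shift crosses a set limit at or below the top valid dose tested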
FGF22 TSA = binders of human FGF22 by thermal shift; Thermal shift assay, SYPRO orange, melting temperature shift; 50 tested, under 10 active; Tm shift (activity), % at 38 µM; shares compounds with FGF22 binding-1;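 active = compounds whose fitted dose curve of melting temperature shift rises past a set threshold within the tested doses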
TSA no protein = counter-screen for FGF22 binders: compound-only thermal shift, no protein; AC50, µM (top dose mostly 38 µM); compound-only SYPRO orange thermal shift counter-screen; shares compounds with FGF22 binding-1; 1,000 tested, 2% active;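 active = rising signal whose fitted curve reaches the 0.54 level within the top valid dose, showing a melting point, actives reach about 13 µM in these data; inactive = the rest, including activity in the opposite direction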; also: value is where the raw curve crosses a fixed level and not half-maximal
* marks the source's active call; other numbers are inactive results; [ ] = dose if it differs, or a comment. Sampled rows, rich in hits. Any-hit rate of the full collection: about 1.9%.

What do the screens show for `COc1ccccc1-c1cnc2c(c1)C(=O)N([C@H](C)CO)C[C@H](C)[C@@H](CN(C)C(=O)c1ccncc1)O2`?
PglD DTNB: 16; UUG fidelity: -2; ERp5 block: -4; FGF22 binding-1: 0; ARNT-TACC3 inh: -10

What do the screens show for `CO[C@@H]1CN(C)C(=O)c2cc(NC(=O)C3CC3)ccc2OC[C@@H](C)N(CC2CCOCC2)C[C@@H]1C`?
PglD DTNB: 4; UUG fidelity: -7; ERp5 block: 6; FGF22 binding-1: 0

How did O=C(Nc1ccsc1C(=O)O)c1cccc(Oc2ccccc2)c1 do in these assays?
PglD DTNB: 4; PDI inh: 19; UUG fidelity: -26; ERp5 block: -2; FGF22 binding-1: 0; ARNT-TACC3 inh: -4

How did O=C(Nc1ccsc1C(=O)O)c1cccc(C(F)(F)F)c1 do in these assays?
PDI inh: -16; ERp5 block: 0; FGF22 binding-1: 1.5*; ARNT-TACC3 inh: -9; FGF22 binding-2: 0.19; TSA no protein: inactive

Results for CC(=O)N(C)C[C@H]1Oc2ncc(-c3ccc(C#N)cc3)cc2C(=O)N([C@@H](C)CO)C[C@H]1C ?
PglD DTNB: -3; UUG fidelity: -2; ERp5 block: 2; FGF22 binding-1: 0; ARNT-TACC3 inh: -16

Results for COC(=O)[C@]1(C)N[C@H](c2ccc(-c3ccccc3)cc2)[C@@H]2C(=O)N(C)C(=O)[C@@H]21 ?
PglD DTNB: -2; PDI inh: 13; UUG fidelity: 12; ERp5 block: 1; FGF22 binding-1: 8.1*; ARNT-TACC3 inh: 0; FGF22 binding-2: -0.025; TSA no protein: inactive

What do the screens show for `COC(=O)[C@]1(C)N[C@H](c2ccc(-c3cccc(Cl)c3)cc2)[C@@H]2C(=O)N(C)C(=O)[C@@H]21`?
PglD DTNB: -1; PDI inh: 2; UUG fidelity: 9; ERp5 block: -1; FGF22 binding-1: 0; ARNT-TACC3 inh: -2

How did C/C(CC(=O)Nc1ccccc1Cl)=N\NC(=O)C(=O)NCCO do in these assays?
PglD DTNB: 2; PDI inh: 1; UUG fidelity: 1; ERp5 block: 0; FGF22 binding-1: 0; ARNT-TACC3 inh: -4

What do the screens show for `C/C(CC(=O)Nc1cccc(Cl)c1Cl)=N\NC(=O)C(=O)NC1CCCCC1`?
PglD DTNB: -2; PDI inh: 10; UUG fidelity: -4; ERp5 block: 4; FGF22 binding-1: 28*; ARNT-TACC3 inh: 24; FGF22 binding-2: 0.051; TSA no protein: inactive

How did O=C(N[C@H]1C=C[C@H](CC(=O)N2CCCCC2)O[C@H]1CO)c1cccc(F)c1 do in these assays?
PglD DTNB: 7; UUG fidelity: -16; ERp5 block: 0; FGF22 binding-1: 1.5*; ARNT-TACC3 inh: -13; TSA no protein: inactive

Results for COc1cccc(NC(=O)N[C@H]2C=C[C@@H](CC(=O)N3CCN(C)CC3)O[C@H]2CO)c1 ?
PglD DTNB: -4; UUG fidelity: 6; ERp5 block: 1; FGF22 binding-1: 2.3*; ARNT-TACC3 inh: -8; FGF22 binding-2: 0.12[42 µM]; TSA no protein: inactive

Results for CN1CCN(C(=O)C[C@H]2C=C[C@@H](NC(=O)c3ccc4c(c3)OCO4)[C@H](CO)O2)CC1 ?
PglD DTNB: 4; UUG fidelity: -21; ERp5 block: 3; FGF22 binding-1: 1.2*; ARNT-TACC3 inh: 17; FGF22 binding-2: 0.14[42 µM]; TSA no protein: inactive

How did O=C(N[C@H]1C=C[C@H](CC(=O)N2CCCCC2)O[C@@H]1CO)c1cccc(F)c1 do in these assays?
PglD DTNB: 6; UUG fidelity: 10; ERp5 block: 0; FGF22 binding-1: 1; ARNT-TACC3 inh: -19

Results for O=C(N[C@@H]1C=C[C@H](CC(=O)N2CCCCC2)O[C@@H]1CO)c1cccc(F)c1 ?
PglD DTNB: 3; UUG fidelity: -14; ERp5 block: 1; FGF22 binding-1: 1.3*; ARNT-TACC3 inh: -9; FGF22 binding-2: -0.043; TSA no protein: inactive

What do the screens show for `CCC(=O)N1CCCCN2[C@H](C1)[C@@H](c1ccc(C#Cc3ccccc3F)cc1)[C@@H]2CO`?
PglD DTNB: 12; UUG fidelity: 3; ERp5 block: -1; FGF22 binding-1: 0; ARNT-TACC3 inh: -6

Results for Cc1cccc(-c2ccc([C@H]3[C@H](CO)N4CCCCN(Cc5ccncc5)C[C@@H]34)cc2)c1 ?
PglD DTNB: -1; UUG fidelity: -9; ERp5 block: -4; FGF22 binding-1: 0; ARNT-TACC3 inh: 4

Results for COc1ccc(N2CCN(CCOc3ccc4c(C)cc(=O)oc4c3)CC2)cc1 ?
PglD DTNB: 1; PDI inh: 1; UUG fidelity: -9; ERp5 block: 2; FGF22 binding-1: 2.2*; ARNT-TACC3 inh: 1; TSA no protein: inactive

What do the screens show for `COc1ccc(S(=O)(=O)N/N=c2\oc3c(OC)cccc3cc2S(=O)(=O)c2ccc(C)cc2)cc1OC`?
PDI inh: 1; ERp5 block: -8; FGF22 binding-1: 1.7*; ARNT-TACC3 inh: -7; FGF22 binding-2: -0.042; TSA no protein: inactive

What do the screens show for `C[C@@H]1CN([C@@H](C)CO)C(=O)c2cccc(N(C)C)c2O[C@H]1CN(C)Cc1ccc(-c2ccccc2)cc1`?
PglD DTNB: 5; ERp5 block: -2; FGF22 binding-1: 0; ARNT-TACC3 inh: -1

What do the screens show for `C[C@@H](O)C#Cc1cnc2c(c1)C(=O)N([C@@H](C)CO)C[C@H](C)[C@H](CN(C)C(=O)c1ccncc1)O2`?
PglD DTNB: 0; UUG fidelity: -18; ERp5 block: 1; FGF22 binding-1: 0; ARNT-TACC3 inh: -3

Results for COc1ccc(-c2nc(CCl)cs2)cc1OC ?
PglD DTNB: 2; PDI inh: -3; UUG fidelity: 13; ERp5 block: 1; FGF22 binding-1: 0; ARNT-TACC3 inh: 8

What do the screens show for `COc1ccc(-c2nc(-c3ccc(O)cc3O)cs2)cc1OC`?
PglD DTNB: 6; PDI inh: 4; UUG fidelity: -13; ERp5 block: -4; FGF22 binding-1: 2.5*; ARNT-TACC3 inh: 12; FGF22 binding-2: 0.11; FGF22 TSA: 0; TSA no protein: inactive

How did CCN1C(=O)c2cccc3c(S(=O)(=O)Nc4ccc(O)c(C(=O)O)c4)ccc1c23 do in these assays?
PglD DTNB: -11; PDI inh: -9; UUG fidelity: 5; ERp5 block: -1; FGF22 binding-1: 8.4*; ARNT-TACC3 inh: 12; FGF22 binding-2: 0.045; TSA no protein: inactive

Three records picked at random from the list so far, as already listed:
Results for O=C(N[C@@H]1C=C[C@H](CC(=O)N2CCCCC2)O[C@@H]1CO)c1cccc(F)c1 ?
PglD DTNB: 3; UUG fidelity: -14; ERp5 block: 1; FGF22 binding-1: 1.3*; ARNT-TACC3 inh: -9; FGF22 binding-2: -0.043; TSA no protein: inactive

How did CCN1C(=O)c2cccc3c(S(=O)(=O)Nc4ccc(O)c(C(=O)O)c4)ccc1c23 do in these assays?
PglD DTNB: -11; PDI inh: -9; UUG fidelity: 5; ERp5 block: -1; FGF22 binding-1: 8.4*; ARNT-TACC3 inh: 12; FGF22 binding-2: 0.045; TSA no protein: inactive

How did O=C(Nc1ccsc1C(=O)O)c1cccc(Oc2ccccc2)c1 do in these assays?
PglD DTNB: 4; PDI inh: 19; UUG fidelity: -26; ERp5 block: -2; FGF22 binding-1: 0; ARNT-TACC3 inh: -4

Bioassay records from PubChem.
